{
  "source": "patent EP1914230B1",
  "about": "(The Arizona Board of Regents on behalf of the University of …, priority 2001, dated 2003)",
  "system": "C57BL6 mice",
  "settings": "percent decrease in lymphocyte counts at the MTD or highest dose tested, relative to wortmannin as 1.0",
  "data": [
    {"smiles": "COC[C@H]1OC(=O)C(=CN(C)Cc2ccccc2)C2=C(O)C(=O)C3=C([C@H](OC(C)=O)C[C@]4(C)C(=O)CC[C@@H]34)[C@]21C", "note": "[DJM2-181, Acetic acid 4-[(benzylmethylamino)methylene]-6-hydroxy-1α-methoxymethyl-10β,13β-dimethyl-3,7,17-trioxo-1,3,4,7,10,11β,12,13,14α,15,16,17-dodecahydro-2-oxa-cyclopenta[a]phenanthren-11-yl ester]", "values": [
      {"measurement": "Lymphocyte toxicity relative to wortmannin", "value": 1.9}
    ]}
  ]
}
